Measurements taken from ChEMBL document CHEMBL5543159, “Discovery of an Ortho-Substituted N-Cyclopropylmethyl-7α-phenyl-6,14-endoethano-tetrahydronorthebaine Derivative as a Selective and Potent Kappa Opioid Receptor Agonist with Subsided Sedative Effect” (2024).

Amino acid sequences for entries named in this document (tags omitted).
UniProt P41145, whole entry: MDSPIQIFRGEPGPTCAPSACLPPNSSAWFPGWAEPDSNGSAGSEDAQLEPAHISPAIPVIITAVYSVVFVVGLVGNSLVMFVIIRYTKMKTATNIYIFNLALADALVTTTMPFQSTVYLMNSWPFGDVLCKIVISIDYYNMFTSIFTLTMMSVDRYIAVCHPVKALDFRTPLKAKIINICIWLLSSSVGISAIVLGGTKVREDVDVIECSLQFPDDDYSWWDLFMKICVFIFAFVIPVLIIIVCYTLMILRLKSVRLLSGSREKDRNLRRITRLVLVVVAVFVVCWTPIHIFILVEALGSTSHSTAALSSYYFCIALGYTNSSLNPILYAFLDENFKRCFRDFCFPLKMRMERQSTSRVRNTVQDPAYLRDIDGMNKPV
UniProt P33535, whole entry: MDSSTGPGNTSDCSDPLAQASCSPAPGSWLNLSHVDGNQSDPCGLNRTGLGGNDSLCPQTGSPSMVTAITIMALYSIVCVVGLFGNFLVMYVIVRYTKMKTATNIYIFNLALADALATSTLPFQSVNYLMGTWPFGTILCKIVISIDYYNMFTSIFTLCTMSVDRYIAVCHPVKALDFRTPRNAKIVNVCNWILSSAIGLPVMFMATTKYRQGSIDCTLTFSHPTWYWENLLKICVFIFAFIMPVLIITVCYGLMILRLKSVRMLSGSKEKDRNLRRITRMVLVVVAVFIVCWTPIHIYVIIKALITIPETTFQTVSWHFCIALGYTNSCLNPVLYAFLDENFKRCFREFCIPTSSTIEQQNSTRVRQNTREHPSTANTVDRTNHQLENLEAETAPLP
UniProt P33533, whole entry: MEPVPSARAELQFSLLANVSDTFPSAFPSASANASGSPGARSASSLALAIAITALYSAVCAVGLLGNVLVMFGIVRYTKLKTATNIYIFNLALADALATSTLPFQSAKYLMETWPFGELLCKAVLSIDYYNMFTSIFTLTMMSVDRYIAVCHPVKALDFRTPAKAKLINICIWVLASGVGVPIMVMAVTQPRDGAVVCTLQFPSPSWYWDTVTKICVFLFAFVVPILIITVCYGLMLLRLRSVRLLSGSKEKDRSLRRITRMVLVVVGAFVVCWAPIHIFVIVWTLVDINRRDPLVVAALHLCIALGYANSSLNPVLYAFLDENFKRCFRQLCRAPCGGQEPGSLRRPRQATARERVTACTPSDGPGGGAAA

What was measured:
[1] = target: Kappa-type opioid receptor (Homo sapiens, UniProt P41145); assay: Displacement of [3H]U69593 from human KOR expressed in CHO cells membrane assessed as inhibition constant incubated for 1 hrs by liquid scintillation counting method
Mu-type opioid receptor = Mu-type opioid receptor (Rattus norvegicus, UniProt P33535); assay: Displacement of [3H]-DAMGO from rat MOR receptor expressed in CHO cell membrane assessed as inhibition constant incubated for 1 hrs by liquid scintillation counting method
[2] = target: Delta-type opioid receptor (Rattus norvegicus, UniProt P33533); assay: Displacement of [3H]DPDPE from rat DOR expressed in CHO cells membrane assessed as inhibition constant incubated for 1 hrs by liquid scintillation counting method

CNc1ccccc1[C@H]1C[C@@]23CC[C@]1(OC)[C@@H]1Oc4c(OC)ccc5c4[C@@]12CCN(CC1CC1)[C@@H]3C5
Ki [1]: 70.1 nM | Ki (Mu-type opioid receptor): 28.6 nM | Ki [2]: 216 nM
